Measurements from US5965720A, “Oligonucleotide N3'→P5' phosphoramidates” (Lynx Therapeutics, Inc., priority 1997, dated 1999).

System: snake venom phosphodiesterase
Assay: Stability toward hydrolysis by snake venom phosphodiesterase (RP HPLC)
Type: in vitro ADME, Crotalus durissus
Conditions: after 10 minutes; 0.22 U phosphodiesterase, 10 mM Tris HCl, 10 mM MgCl2

phosphodiester decathymidilic acid
extent of hydrolysis by snake venom phosphodiesterase: completely hydrolyzed
